For this experiment, the target named is T1, A1-adenosine receptor (Rattus norvegicus, UniProt P25099).
T1 construct: Rat cerebral cortical membranes and striatal membranes were prepared; from tissue; host or cells: rat cerebral cortex membranes
Briefly: Inhibition of [3H]N6-phenylisopropyladenosine binding to A1 receptors. Particulars: rat cerebral cortex membranes, 1 nM [3H]PIA.

Chains of the proteins cited; added tags and fusions are not shown.
UniProt P25099, whole entry: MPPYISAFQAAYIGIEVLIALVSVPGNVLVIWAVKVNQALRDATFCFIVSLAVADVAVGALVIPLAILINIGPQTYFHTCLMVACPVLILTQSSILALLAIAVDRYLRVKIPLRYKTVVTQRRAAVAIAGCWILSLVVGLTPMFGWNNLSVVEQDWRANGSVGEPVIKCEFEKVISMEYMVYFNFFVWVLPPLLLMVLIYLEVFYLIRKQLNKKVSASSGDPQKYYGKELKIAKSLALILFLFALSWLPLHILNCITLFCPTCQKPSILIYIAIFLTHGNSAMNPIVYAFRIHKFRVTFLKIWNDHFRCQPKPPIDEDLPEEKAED

Among the data in US20030114375A1, “Method for treating cystic fibrosis” (The Government of the USA, Dept of Health and Human …, priority 1994, published 2003) are Ki values, retold here.

The Ki is the dissociation constant of the complex between target and ligand, obtained from inhibition or displacement. A higher Ki goes with weaker binding.

“3-isobutylmethyl xanthine [Compound 3, reference compound]” came in with a Ki of 7 µM.
